Drawing on ChEMBL document CHEMBL1131601, “4-Amino-2-[4-[1-(benzyloxycarbonyl)-2(S)- [[(1,1-dimethylethyl)amino]carbonyl]-piperazinyl]-6, 7-dimethoxyquinazoline (L-765,314): a potent and selective alpha1b adrenergic receptor antagonist” (J Med Chem, 1998), this text covers Ki for two molecules.

Test [1] deals with T1, Alpha-1A adrenergic receptor (Homo sapiens, UniProt P35348).
T1 sequence (P35348 whole entry): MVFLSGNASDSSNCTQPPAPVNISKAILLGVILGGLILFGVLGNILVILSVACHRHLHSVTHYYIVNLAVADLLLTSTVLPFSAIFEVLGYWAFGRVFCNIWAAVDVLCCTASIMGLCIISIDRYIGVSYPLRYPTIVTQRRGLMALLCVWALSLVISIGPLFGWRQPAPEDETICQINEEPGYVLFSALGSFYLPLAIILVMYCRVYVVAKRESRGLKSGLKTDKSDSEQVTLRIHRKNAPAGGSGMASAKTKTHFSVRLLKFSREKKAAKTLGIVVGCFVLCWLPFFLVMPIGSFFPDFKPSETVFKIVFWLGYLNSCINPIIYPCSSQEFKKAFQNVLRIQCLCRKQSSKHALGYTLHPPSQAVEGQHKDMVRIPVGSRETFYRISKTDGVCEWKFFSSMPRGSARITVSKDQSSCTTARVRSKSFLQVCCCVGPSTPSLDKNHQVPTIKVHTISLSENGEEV
Briefly: Compound was tested for its binding affinity utilizing cloned receptor binding assays by using [125 I]HEAT as radioligand to the human Alpha-1A adrenergic receptor (n >= 2).

Test [2] addresses T2, Alpha-1A adrenergic receptor (Rattus norvegicus, UniProt P43140).
T2 sequence (P43140 whole entry): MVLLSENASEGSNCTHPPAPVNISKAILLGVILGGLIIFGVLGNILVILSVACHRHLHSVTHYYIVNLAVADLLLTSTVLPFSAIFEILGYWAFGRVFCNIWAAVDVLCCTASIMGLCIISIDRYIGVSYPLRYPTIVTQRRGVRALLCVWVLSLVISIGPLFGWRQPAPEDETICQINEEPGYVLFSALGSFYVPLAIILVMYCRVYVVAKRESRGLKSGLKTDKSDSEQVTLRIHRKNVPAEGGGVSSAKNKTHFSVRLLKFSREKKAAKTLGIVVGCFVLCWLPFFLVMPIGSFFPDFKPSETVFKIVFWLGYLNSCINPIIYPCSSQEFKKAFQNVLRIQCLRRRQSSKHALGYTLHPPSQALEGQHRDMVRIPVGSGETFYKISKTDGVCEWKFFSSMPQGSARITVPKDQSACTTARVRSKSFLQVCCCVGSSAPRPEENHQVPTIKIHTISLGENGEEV
Nature of the test: Compound was evaluated for its ability to displace [125I]HEAT binding from rat Alpha-1A adrenergic receptor.

The Ki is a dissociation constant, usually derived from enzyme kinetics or from competition with a known ligand. A higher Ki goes with lower affinity. Regarding `COc1ccccc1N1CCN(CCN2C(=O)CC3(CCCC3)CC2=O)CC1` [BMY-7378], the Ki amounted to 294 nM in test [1] and 620 nM in test [2].
For `COc1cc2nc(N3CCN(C(=O)C4CCCO4)CC3)nc(N)c2cc1OC` (stereo not drawn) [TERAZOSIN], in test [2], the Ki stood at 3.9 nM.
